Among the data in patent US9107893B2, “Methods, pharmaceutical compositions and kits for use in the treatment of adult T-cell leukemia/lymphoma” (Institut National de la Sante et de la Recherche Medicale …, priority 2009, dated 2015) are survival benefit and spleen weight values, retold here.

Experiment [1] has as its system Tax-driven murine ATL. Briefly: ATL transplantation model (Tax transgenic spleen cells into SCID mice): survival and cure. Format: in vivo, mouse. The settings on record: mice treated from days 6 to 30, continuous; arsenic 5 μg/g/day ip, IFN 10^6 IU/day sc. An excerpt:
(§1) We used the ATL mouse model of Hasegawa (Hasegawa et al., 2006). To test the effect of different targeted therapies, we established a rapid and reproducible model of disease by direct intra-peritoneal transfer of 10^6 spleen cells from Tax transgenic mice into SCID mice (Charles River, USA). Expression of Tax was only detectable at very low levels by Q-PCR. All murine protocols were approved by the Institutional Animal Care and Utilization Committee (IACUC) of the American University of Beirut. All animals were housed in specific pathogen-free housing. Animals were sacrificed by cervical dislocation following deep anesthesia with isoflurane.
Arsenic trioxide was obtained from Sigma-Aldrich (St Louis, Mo., USA) and recombinant human interferon-alpha (IFN) (Roferon®) from Hoffman-La Roche (Basel, Switzerland). The proteasome inhibitor PS341 or bortezomib (Velcade®) was purchased from Millenium Pharmaceuticals. For in vivo experiments, mice received arsenic (5 μg/g/day) intraperitoneally, IFN (10^6 IU/day) subcutaneously, bortezomib (0.5 mg/Kg/day) through mini-osmotic pumps (Alzet, Charles river). […] None of the different individual or combination treatment regimen was toxic in normal SCID mice (100% survival for more than 3 months; n=3 for each condition). […]
Survival curves were calculated according to the method of Kaplan and Meier. […]

Experiment [2] deals with Tax-driven murine ATL. Kind of experiment: Histopathological and laboratory examination of treated murine ATLs. The experiment is classed as in vivo, mouse. The note with it: 6 days of treatment.
Description: as §1, with “isoflurane. […]” for “isoflurane.”
Tissues from both treated and untreated mice were fixed in neutral buffer formalin (Sigma), then embedded in paraffin, sectioned, stained with hematoxylin and cosin (H&E), and examined by light microscopy. Ki-67 expression was assessed by immuno-histochemistry using rat anti-mouse monoclonal antibody Ki-67, clone TEC-3. […] White blood cell (WBC) counts, serum calcium and serum lactate dehydrogenase levels were determined using routine clinical laboratory techniques. […]
Splenocytes were harvested, filtered, washed twice with cold PBS, fixed in 100% ethanol at −20° C. and kept overnight at −20° C. […] The distribution of cell cycle phases with different DNA contents was determined using a FACScan flow cytometer (Becton Dickinson). […]

Consider “IFNα: recombinant human interferon-alpha (Roferon) from Hoffman-La Roche”, for which the survival benefit entry in experiment [1] was “significant survival advantage”. For the same substance, the spleen weight result in experiment [2] was “significant spleen weight reduction”.
